Source: PubChem BioAssay (NCI)
This is a selection; strong and weak results do not stand in their true shares. Some salts or complexes appear as unconnected parts, following the source record. Calls of active or inactive are those of the source. Cut-off read from the data, not from the text of the source: active = growth inhibition above about 70%; inactive = the rest.

Legend:
[1] = NCI Yeast Anticancer Drug Screen. Data for the rad50 strain (AID 155);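 note: 0% = growth of vehicle-only cultures of the same strain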; conditions: S. cerevisiae rad50 strain growth inhibition; at 50.0 µM; stronger effect = higher value
[2] = NCI Yeast Anticancer Drug Screen. Data for the mec2-1 strain (AID 157); conditions: S. cerevisiae mec2-1 strain, at 50.0 µM, stronger effect = higher value
[3] = NCI Yeast Anticancer Drug Screen. Data for the sgs1 mgt1 strain (AID 161);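 note: 0% = growth of cultures given vehicle only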; conditions: S. cerevisiae sgs1 mgt1 strain, at 50.0 µM, stronger effect = higher value
[4] = NCI Yeast Anticancer Drug Screen. Data for the cln2 rad14 strain (AID 165);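 note: 0% = growth equal to vehicle treated cultures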; conditions: S. cerevisiae cln2 rad14 strain, at 50.0 µM, stronger effect = higher value
[5] = NCI Yeast Anticancer Drug Screen. Data for the bub3 strain (AID 167); conditions: S. cerevisiae bub3 mutant strain, at 50.0 µM, stronger effect = higher value
[6] = NCI Yeast Anticancer Drug Screen. Data for the mlh1 rad18 strain (AID 175); conditions: S. cerevisiae mlh1 rad18 strain growth inhibition; at 50.0 µM; stronger effect = higher value

Compound | growth inhibition [1] | growth inhibition [2] | growth inhibition [3] | growth inhibition [4] | growth inhibition [5] | growth inhibition [6]
CCN(CC)CCS(=O)CCN(CC)CC | inactive: 11.1% | inactive: 11.9% | inactive: 19.8% | inactive: -1.6% | inactive: -2.05% | inactive: 46.7%
CN([PH+](F)F)[PH+](F)F.CN([PH+](F)F)[PH+](F)F.CN([PH+](F)F)[PH+](F)F.[Ni].[Ni].c1ccc([PH+](c2ccccc2)c2ccccc2)cc1.c1ccc([PH+](c2ccccc2)c2ccccc2)cc1 | inactive: 9.4% | inactive: 4.65% | inactive: -1.45% | inactive: 19% | inactive: 1.95% | inactive: -7.9%
O=C(O)C(O)(c1ccccc1)c1ccccc1.OC1CN2CCC1CC2 | inactive: -15.9% | inactive: -4.3% | inactive: -2.8% | inactive: -1.85% | inactive: -4.7% | inactive: -6.55%
CCN(CC(C)O)C1CCCCC1.O=[N+]([O-])c1cc([N+](=O)[O-])c(O)c([N+](=O)[O-])c1 | inactive: 42.9% | inactive: 13.1% | inactive: 36.6% | inactive: -3.6% | inactive: 1.7% | inactive: 18.8%
CCC1CCCCN1.O=[N+]([O-])c1cc([N+](=O)[O-])c(O)c([N+](=O)[O-])c1 | inactive: -5.7% | inactive: -0.75% | inactive: 8.1% | inactive: -12.7% | inactive: 22.6% | inactive: 21.8%
CC1CN(C)CC1C.O=[N+]([O-])c1cc([N+](=O)[O-])c(O)c([N+](=O)[O-])c1 | inactive: 11.5% | inactive: 3.8% | inactive: 4.8% | inactive: 2.15% | inactive: 34.2% | inactive: 12.8%
Cc1cc(C)c2c(ccc3cc(C)cc(C)c32)c1.O=[N+]([O-])c1cc([N+](=O)[O-])cc([N+](=O)[O-])c1 | active: 96% | active: 99% | active: 98.7% | active: 81% | active: 98.5% | active: 98%
NCCCO.O=[N+]([O-])c1cc([N+](=O)[O-])c(O)c([N+](=O)[O-])c1 | inactive: 12.5% | inactive: 4.9% | inactive: 13.9% | inactive: -40.6% | inactive: -5.7% | inactive: 0.05%
CCN(CC)CCN1CCN=C1Cc1ccccc1.O=[N+]([O-])c1cc([N+](=O)[O-])c(O)c([N+](=O)[O-])c1 | inactive: 17% | inactive: 1.7% | inactive: 7.5% | inactive: -2.9% | inactive: 2.5% | inactive: 22.6%
CCN(CC)CCOC(=O)C(O)(c1ccccc1)c1ccc(C)c(C)c1C (stereo not given) | inactive: -1.1% | inactive: 4.35% | inactive: -5.55% | inactive: -21.6% | inactive: -5% | inactive: 5.6%
N#CCc1ccc2ccccc2n1.O=[N+]([O-])c1cc([N+](=O)[O-])c(O)c([N+](=O)[O-])c1 | inactive: 46% | inactive: 14.7% | inactive: 35.9% | inactive: 25.1% | inactive: 8.1% | inactive: 22.6%
COP(C)(=O)OC.COP(C)(=O)OC.COP(C)(=O)OC.COP(C)(=O)OC.COP(C)(=O)OC.COP(C)(=O)OC.[Fe+3].[O-][Cl+3]([O-])([O-])O | inactive: -0.4% | inactive: 22.4% | inactive: 13.6% | inactive: -9.75% | inactive: -8.8% | inactive: 23.8%
CC(C)OP(C)(O)=S.CC(N)c1ccccc1 (stereo not given) | inactive: -8.65% | inactive: -19.1% | inactive: -6.35% | inactive: -1.25% | inactive: -16.7% | inactive: -13.4%
C1CCN(C2CC3CC2C2CSCC32)CC1 (stereo not given) | inactive: 62.5% | inactive: 37.6% | active: 72.3% | inactive: -2.1% | inactive: 11.3% | inactive: 42.8%
NCc1ccncc1.O=[N+]([O-])c1cc([N+](=O)[O-])c(O)c([N+](=O)[O-])c1 | inactive: 9.1% | inactive: 4.3% | inactive: 5.45% | inactive: -4.8% | inactive: 36.5% | inactive: 22.4%
CCN(CC)CCOC(=O)C(O)(c1ccccc1)c1ccc(C)c(C)c1 (stereo not given) | inactive: -1.2% | inactive: -8.3% | inactive: -5.35% | inactive: 3.95% | inactive: 8.1% | inactive: 0.45%
O=[N+]([O-])c1cc([N+](=O)[O-])c(O)c([N+](=O)[O-])c1.c1cncc(N=Nc2cccnc2)c1 | inactive: 9.85% | inactive: 19.4% | inactive: 40.9% | inactive: 38.3% | inactive: 18.6% | inactive: 35%
CN(C)c1ccc(N=O)cc1.[C-]#N.[C-]#N.[C-]#N.[C-]#N.[C-]#N.[Fe+6] | inactive: 20% | inactive: 8.5% | inactive: 32.2% | inactive: 36% | inactive: 44.9% | inactive: 21.6%
O=C(CCCN1CCC(OC(=O)C(O)(c2ccccc2)c2ccccc2)CC1)c1ccc(F)cc1 | inactive: 38.3% | inactive: 46.5% | inactive: 44.8% | inactive: 55% | inactive: 44% | inactive: 48.6%
O=C(Nc1c([N+](=O)[O-])cc([N+](=O)[O-])cc1[N+](=O)[O-])c1ccccc1 | inactive: 19.9% | inactive: 8.15% | inactive: 29.8% | inactive: 22.8% | inactive: 22.6% | inactive: 46.6%
O=[N+]([O-])C(CO)(CO)[N+](=O)[O-] | inactive: 25.5% | inactive: -10.4% | inactive: 28.9% | inactive: -29.8% | inactive: -7.2% | inactive: 20.4%
Cc1ccc2ccc(C)c(C)c2c1.O=[N+]([O-])c1cc([N+](=O)[O-])c(O)c([N+](=O)[O-])c1O | inactive: -1.95% | inactive: -30.4% | inactive: -0.05% | inactive: -10.9% | inactive: -8.05% | inactive: 1.85%
CC(C)OP(C)(=O)O.[Fe] | inactive: -3.15% | inactive: -7.5% | inactive: 2.4% | inactive: -39.1% | inactive: -12.9% | inactive: -4.5%
CCCSC(=N)N.O=[N+]([O-])c1cc([N+](=O)[O-])c(O)c([N+](=O)[O-])c1 | inactive: -6.7% | inactive: -11.4% | inactive: -8% | inactive: -41.8% | inactive: 23.6% | inactive: -0.2%
O=[N+]([O-])c1cc([N+](=O)[O-])c(O)c([N+](=O)[O-])c1.OCCc1ccncc1 | inactive: 13.2% | inactive: 0.7% | inactive: 8.45% | inactive: -7.45% | inactive: 17.9% | inactive: 5.35%
